In general, IC50 refers to the concentration needed to halve the response being measured. Low readings indicate greater potency in that assay, high ones weaker potency in that assay.

Sequences of proteins named here, by UniProt entry; tags and fusion partners are left off.
UniProt P18901, whole entry: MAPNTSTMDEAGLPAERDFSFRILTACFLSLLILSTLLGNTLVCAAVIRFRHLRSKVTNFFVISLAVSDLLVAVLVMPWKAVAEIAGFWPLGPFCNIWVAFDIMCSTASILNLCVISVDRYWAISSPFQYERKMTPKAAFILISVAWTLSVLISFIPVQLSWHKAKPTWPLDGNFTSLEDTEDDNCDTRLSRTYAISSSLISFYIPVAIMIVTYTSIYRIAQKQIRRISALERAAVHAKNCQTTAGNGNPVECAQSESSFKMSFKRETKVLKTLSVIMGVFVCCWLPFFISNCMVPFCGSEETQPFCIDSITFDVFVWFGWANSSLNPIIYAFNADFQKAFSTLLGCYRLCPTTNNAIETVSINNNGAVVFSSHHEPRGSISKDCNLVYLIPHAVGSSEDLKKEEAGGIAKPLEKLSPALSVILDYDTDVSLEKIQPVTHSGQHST
UniProt P61169, whole entry: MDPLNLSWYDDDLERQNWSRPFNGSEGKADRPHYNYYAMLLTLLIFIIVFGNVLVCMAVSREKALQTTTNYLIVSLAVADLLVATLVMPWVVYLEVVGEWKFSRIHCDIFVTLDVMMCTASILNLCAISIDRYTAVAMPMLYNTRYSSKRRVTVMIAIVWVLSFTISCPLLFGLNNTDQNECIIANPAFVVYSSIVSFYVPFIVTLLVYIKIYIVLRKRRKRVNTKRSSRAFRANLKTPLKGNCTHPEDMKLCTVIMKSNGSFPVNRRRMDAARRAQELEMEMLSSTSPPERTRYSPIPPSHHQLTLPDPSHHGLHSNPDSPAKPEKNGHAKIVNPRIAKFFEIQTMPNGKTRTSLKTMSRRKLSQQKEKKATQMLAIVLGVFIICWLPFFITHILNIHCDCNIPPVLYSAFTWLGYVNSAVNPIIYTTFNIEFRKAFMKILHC

Assay [1] addresses DA D1 receptor (Rattus norvegicus, UniProt P18901). The experiment in a line: biochemical. The settings on record: Receptor Binding; IC50, D1 3H-SCH, rat striatal membranes, 3H-SCH 23390.
Assay [2] addresses DA D2 receptors (Rattus norvegicus, UniProt P61169). The experiment in a line: Inhibition of 3H-spiperone binding to DA D2 receptors in rat striatal membranes. Particulars: Receptor Binding, IC50, D2 3H-Spi.

On to `CN1CCN([C@@H]2C[C@@H](c3ccc(F)cc3)c3ccc(Cl)cc32)CC12CCC2` (racemic) [Compound 28, (±)-Trans-8-[6-chloro-3-(4-fluorophenyl)-2,3-dihydro-1H-inden-1-yl]-5-methyl-5,8-diazaspiro[3.5]nonane], for which the IC50 in assay [1] is 0.89 nM. With `CN1CCN([C@@H]2C[C@@H](c3ccc(F)cc3)c3ccc(Cl)cc32)CC1(C)C` (single isomer, unassigned) [+2, (+) Trans-4-[6-chloro-3-(4-fluorophenyl)-2,3-dihydro-1H-inden-1-yl]-1,2,2-trimethylpiperazine], the IC50 in assay [2] was more than 1000 nM.

(Values after US5807855A (dated 1998).)
